Results taken from patent US20110212973A1, “CARBAMATE COMPOUND OR SALT THEREOF” (published 2011).

Sequences of proteins named here, by UniProt entry; tags and fusion partners are left off.
UniProt P97612, whole entry, looked up: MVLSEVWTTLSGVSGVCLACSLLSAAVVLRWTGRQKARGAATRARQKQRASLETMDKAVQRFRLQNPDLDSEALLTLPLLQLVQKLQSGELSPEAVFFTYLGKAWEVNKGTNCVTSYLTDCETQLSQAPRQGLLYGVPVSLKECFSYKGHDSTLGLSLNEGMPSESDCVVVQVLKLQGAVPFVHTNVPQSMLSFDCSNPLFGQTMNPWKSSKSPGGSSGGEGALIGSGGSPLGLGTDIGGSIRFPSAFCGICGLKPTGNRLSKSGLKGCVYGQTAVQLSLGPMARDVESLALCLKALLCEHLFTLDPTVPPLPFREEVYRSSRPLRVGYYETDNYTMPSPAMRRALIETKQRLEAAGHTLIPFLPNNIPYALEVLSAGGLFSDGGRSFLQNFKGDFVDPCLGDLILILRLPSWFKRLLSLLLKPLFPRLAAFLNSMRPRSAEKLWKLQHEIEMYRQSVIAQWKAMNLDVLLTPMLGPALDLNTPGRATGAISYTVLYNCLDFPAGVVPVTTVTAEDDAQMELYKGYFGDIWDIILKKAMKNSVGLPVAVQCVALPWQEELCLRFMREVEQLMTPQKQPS
UniProt O00519, whole entry, looked up: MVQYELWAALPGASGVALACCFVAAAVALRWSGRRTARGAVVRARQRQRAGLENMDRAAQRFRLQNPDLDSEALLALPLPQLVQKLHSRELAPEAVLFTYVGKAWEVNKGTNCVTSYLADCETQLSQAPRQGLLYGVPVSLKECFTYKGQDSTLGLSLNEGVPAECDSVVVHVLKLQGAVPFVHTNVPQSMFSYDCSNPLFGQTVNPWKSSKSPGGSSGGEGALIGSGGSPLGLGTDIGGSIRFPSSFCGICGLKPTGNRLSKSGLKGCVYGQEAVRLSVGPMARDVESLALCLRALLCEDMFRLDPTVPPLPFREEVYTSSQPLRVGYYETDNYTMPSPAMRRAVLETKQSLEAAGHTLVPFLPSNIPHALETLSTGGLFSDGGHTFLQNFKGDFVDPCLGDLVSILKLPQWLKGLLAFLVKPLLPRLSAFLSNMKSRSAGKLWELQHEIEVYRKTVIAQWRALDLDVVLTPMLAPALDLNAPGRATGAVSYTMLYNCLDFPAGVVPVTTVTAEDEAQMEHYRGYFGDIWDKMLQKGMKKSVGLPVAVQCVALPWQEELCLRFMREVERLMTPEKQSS

Assays:
FAAH [1] = biological target: FAAH (Rattus norvegicus, UniProt P97612); assay: FAAH activity in rat tissue homogenate after oral administration of test substance (Test Example 2); settings: Wistar male rats, 1 mg/kg orally, 30 minutes after dosing; for Inhibitory rate (%) Brain: brain homogenate; for Inhibitory rate (%) Monocytes: peripheral blood monocyte homogenate
FAAH [2] = biological target: FAAH (Homo sapiens, UniProt O00519); assay: Screening for an FAAH activity-inhibiting substance using a human bladder epithelial cancer-derived cell (Test Example 1); settings: human bladder epithelial cancer-derived cell line 5637; radiolabeled anandamide substrate, 37° C. for 30 minutes; URB597 10 μM = 0%, DMSO = 100%
Water-loaded rats = assay: Action on water-loaded rats, anti-diuretic action test (Test Example 4); settings: Wistar male rats, oral dose of 10 mg/kg or less, urine weight measured for 6 hours

Row | SMILES | Inhibitory rate (%) Brain (FAAH [1]) [%] | Inhibitory rate (%) Monocytes (FAAH [1]) [%] | IC50 (FAAH [2]) [nM] | urine amount as compared with the 0.5% methylcellulose group (Water-loaded rats)
1 | O=C(Oc1cccnc1)N1CCN(C(=O)c2nc3c(F)c(F)ccc3[nH]2)CC1 | 92 | 80 | 0.98 | decreased
2 | Cc1c(C(=O)N2CCN(C(=O)Oc3cccnc3)CC2)oc2ccccc12 | 87 | 78 | 0.28 | decreased
3 | O=C(Oc1cccnc1)N1CCN(C(=O)c2nc3cc(Cl)c(Cl)cc3[nH]2)CC1 |  |  | 0.13 | 
4 | O=C(Oc1cccnc1)N1CCN(C(=O)c2nc3ccccc3s2)CC1 |  |  | 0.13 | 
5 | Cc1cccc2[nH]c(C(=O)N3CCN(C(=O)Oc4cccnc4)CC3)nc12 | 94 | 88 | 0.82 | decreased
